Test results published in US20200016283A1, “COMBINATION THERAPY COMPRISING A RADIOPHARMACEUTICAL AND A DNA-REPAIR INHIBITOR” (Bayer AS, priority 2017, published 2020).

Tests used:
Format in all cases: cell-based
Conditions in all cases: Her2-TTC + ATR inhibitor (BAY1895344), viability, 5-7 days
[1] = test system: KPL-4 cancer cell line (Breast cancer); assay: Combination cytotoxicity assay (CellTiter-Glo), KPL-4
[2] = test system: SK-OV-3 cancer cell line (Ovarian cancer); assay: Combination cytotoxicity assay (CellTiter-Glo), SK-OV-3
[3] = test system: BT-474 cancer cell line (Breast cancer); assay: Combination cytotoxicity assay (CellTiter-Glo), BT-474

Measured: Combination Effect

Her2-TTC: HER2-targeted thorium-227 conjugate, prepared according to Examples 5a and 5b of WO 2016/096843
Synergistic: all assays above
